Assay results from ChEMBL document CHEMBL3508140 (2016).

Key:
[1] = Intermediate phase half-life of epirubicin following intravenous epirubicin at 25-35 mg.m-2 dose in cancer patients; type: ADME, organism-based, Plasma; details: human, in vivo
[2] = Intermediate phase half-life of epirubicin following intravenous epirubicin at 50 mg.m-2 dose in cancer patients; type: ADME, organism-based, Plasma; details: human, in vivo
[3] = Half-life of terminal elimination phase of epirubicin following intravenous epirubicin at 70 mg.m-2 dose in cancer patients; type: ADME, organism-based; details: human, plasma
[4] = Initial phase half-life of epirubicin following intravenous epirubicin at 40-60 mg.m-2 dose in cancer patients; type: ADME, organism-based, Plasma; details: human, in vivo
[5] = Mean terminal half-life of epirubicin following intravenous epirubicin at 60 mg.m-2 dose in cancer patients; type: ADME, organism-based; details: human, plasma
[6] = Intermediate phase half-life of epirubicin following intravenous epirubicin at 60 mg.m-2 dose in cancer patients; type: ADME, organism-based, Plasma; details: human, in vivo
[7] = Terminal half-life of epirubicin following intravenous epirubicin at 150 mg.m-2 dose in advanced cancer patients; type: ADME, organism-based; details: human, plasma

Compound `COc1cccc2c1C(=O)c1c(O)c3c(c(O)c1C2=O)C[C@@](O)(C(=O)CO)C[C@@H]3O[C@H]1C[C@H](N)[C@@H](O)[C@H](C)O1.Cl` [EPIRUBICIN HYDROCHLORIDE] has a t1/2 [1] of 1.04 h, a t1/2 [2] of 1.12 h and a half-life [3] of 1810 min. The t1/2 [4] was 1.8 min, the half-life [5] was 1860 min and the t1/2 [6] was 1.08 h. For the same compound, the half-life [7] was 1800 min.
